How the values were obtained:
[1] = tested on: cellular pERK in Kuramochi (WT KRAS) cell-line; assay: Cell based pERK assay (HTRF), Kuramochi; details: read-out: Kuramochi pERK EC50; Kuramochi (WT KRAS) cells, 2 hours incubation; tested form: TFA
[2] = tested on: cellular pERK in ASPC-1 (KRAS G12D) cell-line; assay: Cell based pERK assay (HTRF), ASPC-1; details: read-out: AsPC1 pERK EC50; ASPC-1 (KRAS G12D) cells, 2 hours incubation; tested form: TFA
[3] = tested on: cellular pERK in NCI-H441 (KRAS-G12V) cell-line; assay: Cell based pERK assay (HTRF), NCI-H441; details: read-out: H441 pERK EC50; NCI-H441 (KRAS-G12V) cells, 2 hours incubation; tested form: TFA
[4] = tested on: cellular pERK in MIA-PaCa-2 (KRAS-G12C) cell-line; assay: Cell based pERK assay (HTRF), MIA-PaCa-2; details: read-out: MIAPaCa2 pERK EC50; MIA-PaCa-2 (KRAS-G12C) cells, 2 hours incubation; tested form: TFA

| EC50 [1] | EC50 [2] | EC50 [3] | EC50 [4] | Compound |
| --- | --- | --- | --- | --- |
| 21.5 nM | 112 nM | 62.5 nM | 31.2 nM | C#Cc1c(F)ccc2cc(O)cc(-c3nc4c5c(nc(OC[C@@]67CCCN6C[C@H](F)C7)nc5c3F)N3CCCOCC3CCC4)c12 (stereo partly drawn) |
|  | > 1000 nM | > 1000 nM |  | C#Cc1c(F)ccc2cc(O)cc(-c3nc4c5c(nc(OC[C@@]67CCCN6C[C@H](F)C7)nc5c3F)N3CCOCCC3CCC4)c12 (stereo partly drawn) |
